The source of these data is paper PMC6008493, “Thioamide substitution to probe the hydroxyproline recognition of VHL ligands” (Bioorganic & Medicinal Chemistry, 2018).

In one assay the target is T1, VBC (Homo sapiens, UniProt P40337).
T1 construct: made in house
The assay can be described thus: Direct FP titration of FAM-labelled HIF-1α peptide. The format is binding. As to conditions: peptide bound to VBC. The procedure:
FP competitive binding experiments were performed on a PHERAstar FS (BMG LABTECH) in 384-well plates (Corning 3575), with an excitation wavelength (λ) at 485 nm and emission (λ)at 520 nm. […] Control wells contained VBC and peptide in the absence of compound (maximum signal), and peptide in the absence of protein (background signal). Data were obtained in triplicate and the percentage of displacement was determined and graphed against log[VHL inhibitors]. Average IC50 values and the standard error of the mean (SEM) were determined for each titration using Prism 6. Dissociation constants Kd were back-calculated from the measured IC50 values using a displacement binding model, as described previously.^6

Assay [1] addresses VBC complex (VHL, elongin B, elongin C) (Homo sapiens, UniProt P40337). The assay can be described thus: Isothermal titration calorimetry (ITC) direct titration. The conditions noted are these: 25°C. A general note: ITC needs no label: the signal is the heat of the interaction.
Assay [2] has as its target T2, VBC protein (VHL, elongin B, elongin C) (Homo sapiens, UniProt P40337).
T2 construct: made in house
Nature of the assay: Competitive fluorescence polarization (FP) binding assay displacing FAM-labelled HIF-1α peptide. The conditions noted are these: back-calculated from measured IC50; 15 nM VBC, 10 nM FAM-HIF-1α peptide, pH 7. The procedure: Control wells contained VBC and peptide in the absence of compound (maximum signal), and peptide in the absence of protein (background signal). Data were obtained in triplicate and the percentage of displacement was determined and graphed against log[VHL inhibitors]. Average IC50 values and the standard error of the mean (SEM) were determined for each titration using Prism 6. Dissociation constants Kd were back-calculated from the measured IC50 values using a displacement binding model, as described previously.^6

As usually defined, the Kd is the equilibrium constant for the complex coming apart. Take `CC[C@H](C)[C@H](NC(=O)[C@H](Cc1ccc(O)cc1)NC(=O)[C@@H]1C[C@@H](O)CN1C(=O)[C@H](C)NC(=O)[C@H](CC(C)C)NC(=O)[C@H](C)NC(=O)[C@H](CCC(=O)O)NC(=O)[C@H](CC(=O)O)NC(=O)c1ccc2c(c1)C(=O)OC21c2ccc(O)cc2Oc2cc(O)ccc21)C(=O)N1CCC[C@H]1C(=O)N[C@@H](CCSC)C(=O)N[C@@H](CC(=O)O)C(=O)N[C@@H](CC(=O)O)C(=O)N[C@@H](CC(=O)O)C(=O)N[C@@H](Cc1ccccc1)C(=O)N[C@@H](CCC(N)=O)C(=O)N[C@@H](CC(C)C)C(=O)N[C@@H](CCCNC(=N)N)C(=O)N[C@@H](CO)C(=O)N[C@@H](Cc1ccccc1)C(=O)O` [FAM-labelled HIF-1α peptide]: on VBC, the equilibrium dissociation constant (Kd) amounted to 3 nM.
As for `CC(=O)N[C@@H](C)C(=O)N1C[C@H](O)C[C@H]1C(=O)NCc1ccc(-c2scnc2C)cc1` [compound 1], the ΔH in assay [1] (ITC enthalpy of binding) is -9.12 ± 0.07 kcal/mol. Besides, the Kd is 440 ± 40 nM in assay [1] (read-out: Kd ITC, pH 7, 3% DMSO) and 690 ± 30 nM in assay [2].
